Earlier results as cited in publication PMC8920107 (ADMET & DMPK, 2020).

Tested on: AGP
Settings: calibration drugs, equilibrium dialysis literature % binding; cited from earlier work

Structure (SMILES): O=C(O)Cc1ccccc1Nc1c(Cl)cccc1Cl [Diclofenac]
- % AGP: 60%
